{"source": "patent EP0385445A2", "about": "“Method of forming a suspension and composition formed by said method” (Horikoshi, Isamu, priority 1989, dated 1990)", "assay": "Oral absorption of lipid-soluble drugs reduced to microspheres with MFGM", "settings": "drug reduced to microspheres with MFGM", "data": [{"substance": "vitamin D", "values": [{"measurement": "ability of MFGM to promote the absorption", "result": "also observed"}]}]}
